Test system: RPA194

`CCN(CCN(C)C)C(=O)c1cccn2c(=O)c3cc4ccccc4cc3nc12` [Compound 19, N-[2-(Dimethylamino)ethyl]-N-ethyl-12-oxo-12H-benzo[g]pyrido[2,1-b]quinazoline-4-carboxamide] was tested, and the “Decrease in potency relative to compound 2” value was “either inactive or caused >400-fold decrease in potency”.

Source: PMC4059246 (Journal of Medicinal Chemistry, 2014)
